Antibody variant affinities, Ab-14 heavy chain, assay B

From the AlphaSeq antibody data of Li et al. 2023 (doi:10.1038/s41467-023-39022-2), copy in the FLAb collection.

Binding partner: SARS-CoV-2 spike HR2 peptide, sequence PDVDLGDISGINAS.

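These sequences belong to a second round, designed from the earlier measurements on random variants of the parent. Group labels follow the data file (Ctrl: baseline library sampled from a position-specific scoring matrix, with some repeated check sequences; GPLM: also part of the Gaussian process libraries; HC: hill climbing; Gen: genetic algorithm; a sequence that several methods proposed may carry one label only). In AlphaSeq, yeast of one mating type display the scFv and yeast of the other type display the target. The frequency of each diploid, read from paired DNA barcodes, reflects how well the two displayed proteins bind. A regression on co-assayed BCL2-family reference pairs converts the normalised counts of each replicate to an apparent Kd. There are six technical replicates.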

Each scFv is VH, a 15-residue (Gly4Ser)3 linker, VL, as in the parent Ab-14, and differs from it in the CDRs of the heavy chain only.
VH: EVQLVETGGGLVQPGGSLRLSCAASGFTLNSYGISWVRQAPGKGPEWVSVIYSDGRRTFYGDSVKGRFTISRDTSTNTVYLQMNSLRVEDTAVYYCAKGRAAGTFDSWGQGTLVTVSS
VL: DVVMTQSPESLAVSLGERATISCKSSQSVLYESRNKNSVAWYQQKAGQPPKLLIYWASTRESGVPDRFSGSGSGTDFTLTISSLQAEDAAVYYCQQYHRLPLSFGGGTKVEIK

Each variant is given by its three heavy chain CDRs, as the data file delimits them; those of the parent are GFTLNSYGIS, VIYSDGRRTFYGDSVK, GRAAGTFDS. Scale: log10 of Kd in nM, estimated from mating counts; low values are strong binders. A pair that was not seen in that replicate is written "n.d."; this usually means weak binding, but a binder can also be missed. Nonspecific signal, from three strains lacking the peptide, appeared in 1% of pairings of all heavy chain designs, centred on 2.08 (5% of these signals below 0.84); values are not corrected for it. For each scFv, signals with the empty controls are counted beside the result, with their mean in brackets. The authors' rule: three or more of the six replicates give a measured affinity, fewer mean a poor binder. The range of this assay differs from that of the first round, and the authors advise against merging the two. Some sequences occur more than once in the pool; their replicates are listed entry by entry, parted by semicolons.

CDR-H1 | CDR-H2 | CDR-H3 | group | replicates, log10 nM | empty controls
GFTLEDYGIS | VIYSDGRRTMYGDSVK | GRAAGTFDS | Ctrl | 0.86 0.68 0.60 0.77 0.41 1.42 | 1 of 18 (1.29)
GFTRNTYGIS | VIYSDGLRTAYGDSVK | GDAAVTFDS | Ctrl | n.d. n.d. n.d. n.d. n.d. n.d. | 1 of 18 (0.91)
GFTLNSYGIS | VIYSDGRRTFYGDSVK | GRAHATSDS | Ctrl | n.d. n.d. n.d. 1.80 n.d. n.d. | 0 of 18
GFNLNSYGIS | VIYSDGRRTFYGDKVK | GRTAGTFDS | Ctrl+GPLM_Gen | 0.96 0.66 0.93 0.49 0.66 0.66; n.d. 1.53 2.25 0.83 0.27 0.06 | 1 of 36 (3.01)
GFTLNNYGIS | VIYSDGRRTFYGDSVR | LRGIGTFDS | Ctrl | 0.97 0.29 n.d. n.d. n.d. 0.66 | 0 of 18
GFTLNSYGIS | VIYSDGRRTFYGDSYK | GWAAGTFDS | Ctrl | n.d. n.d. n.d. n.d. n.d. n.d. | 0 of 18
GFGLNSYGIS | VIYSDGRRTFYGDSVK | GRAAGTFKS | Ctrl | n.d. n.d. n.d. 1.93 n.d. n.d. | 0 of 18
GFSLNSYGIS | VIYSDGRRTHYGDSVK | GAAAGTFDS | Ctrl | n.d. n.d. 1.15 2.01 0.63 2.14 | 0 of 18
GFTLNSYGIS | VIYADGRRTFYDDSVK | GRAAGLFDS | Ctrl | n.d. n.d. n.d. n.d. n.d. n.d. | 0 of 18
GFTLNSYGIS | VIYADGRRTFYDDSVK | GREAGDFDG | Ctrl | n.d. n.d. n.d. n.d. n.d. n.d. | 0 of 18
GFTLNSYGIS | VIYSDGSRTFYQDSVK | GRAAGTFDT | Ctrl | 1.66 2.01 2.26 2.67 1.45 1.84 | 0 of 18
GFTLNSYGIS | VIYSDGRRTAYGDSVK | GRAAGQFDS | Ctrl | n.d. n.d. n.d. n.d. n.d. n.d. | 0 of 18
DFGLNSYGIS | VIYSDGQRTFYLDKVK | GAVAGTFDS | Ctrl | n.d. n.d. n.d. n.d. n.d. n.d. | 0 of 18
GFTLNSYGIS | VIYSDGRRTFYNDSVK | GKAAGTFDS | Ctrl | n.d. n.d. n.d. n.d. n.d. n.d. | 0 of 18
GFTLNSYGIS | VIYSDGRRTFYGDSVK | GYGAGFFDS | Ctrl | n.d. n.d. n.d. n.d. n.d. n.d. | 0 of 18
GFTLNSYGIS | VIYSDGRRTFYGDSVK | GRSAGTFDS | Ctrl | n.d. 1.57 2.08 1.57 n.d. n.d. | 3 of 18 (1.69)
GFTLNSYGIS | VIYSDGRRTFYGDSVD | GLAGGTFDV | Ctrl | n.d. n.d. n.d. n.d. n.d. n.d. | 0 of 18
GFTMNSYGIS | VIYSDGRRTFYGDDVK | GKAAGTFDS | Ctrl | n.d. n.d. n.d. n.d. n.d. 1.90 | 0 of 18
GFTLNSYGIS | VIYSDGRRQFYHDSVK | GRAAGTFDS | Ctrl | n.d. n.d. 2.96 2.73 2.84 2.98 | 0 of 18
GFTLQSYGIS | VIYSDGRRTSYGDSVK | GSAAGTFDK | Ctrl | 1.85 n.d. 1.26 1.16 n.d. 1.44 | 0 of 18
GFTLNSYGIS | VIYSDGRRTSYGDSVR | ISAAGTFPS | Ctrl | n.d. n.d. n.d. n.d. n.d. n.d. | 0 of 18
GFTLNEYGIS | VIYSDGRRTFYGDSVK | GRNAITFDL | Ctrl | n.d. n.d. n.d. n.d. n.d. n.d. | 0 of 18
GFTLNSYGIS | VIYSDGIRTFYGGSVK | GRAAGTFDS | Ctrl | n.d. n.d. n.d. n.d. n.d. n.d. | 1 of 18 (1.63)
GFTLQSYGIS | VIYSDGRRTFYGDSVK | TDAAGTFDS | Ctrl | n.d. n.d. n.d. n.d. n.d. n.d. | 0 of 18
GFNLNSYGIS | VIYSDGRRTIYGDSVK | GRNAGTFDS | Ctrl | n.d. n.d. n.d. n.d. 1.19 n.d. | 0 of 18
GRTLDKSGIS | VIYSDGRRTFYGDSVK | GRAAGTFDG | Ctrl | n.d. n.d. n.d. n.d. n.d. n.d. | 0 of 18
GFTLNSYGIS | VIYSDGRRTAYSDSVK | GRAAGTFDS | Ctrl+GPLM_HC | 0.78 0.48 0.50 0.85 0.60 0.73; 0.26 0.55 1.34 1.11 -0.09 0.94 | 1 of 36 (1.27)
GFTLNSYGIS | VIYSDGRRTFYGDSVK | GDKQGTFDS | Ctrl | n.d. n.d. n.d. n.d. n.d. n.d. | 0 of 18
GFTLNSYGIS | VIYSDGIRTFYGDSVK | GRNIGTFDS | Ctrl | n.d. n.d. n.d. n.d. n.d. n.d. | 0 of 18
GFTLNSYGIS | VIYFDGRRTFYHDSVK | GRAIGTFDS | Ctrl | n.d. n.d. n.d. n.d. n.d. n.d. | 0 of 18
GFTLNSYGIS | VIYSDGRRTFYMDSVK | GRLAGTFDS | Ctrl | n.d. 0.84 1.37 0.91 n.d. 1.79 | 1 of 18 (1.54)
GFTLNEYGIS | VIYRDGYRTFYGDSVK | GRLKGEFDS | Ctrl | n.d. n.d. n.d. n.d. n.d. n.d. | 0 of 18
GFTLNSYGIS | VIYSDGRRTFYLDNVK | GREAGTFDS | Ctrl | n.d. n.d. n.d. n.d. n.d. n.d. | 0 of 18
GFTLNSYGIS | VIYADGHRTAYGDSVK | GEAAGTIWS | Ctrl | n.d. n.d. n.d. n.d. n.d. n.d. | 0 of 18
DFALESYGIS | VIYSDGRRTFYGDSVK | GRAAGTFDS | Ctrl | n.d. 2.60 n.d. n.d. 2.49 1.46 | 0 of 18

Picked from the list: the 3 lowest averages where every replicate gave a value.

CDR-H1 | CDR-H2 | CDR-H3 | group | replicates, log10 nM | empty controls
GFTLNSYGIS | VIYSDGRRTAYSDSVK | GRAAGTFDS | Ctrl+GPLM_HC | 0.78 0.48 0.50 0.85 0.60 0.73; 0.26 0.55 1.34 1.11 -0.09 0.94 | 1 of 36 (1.27)
GFTLEDYGIS | VIYSDGRRTMYGDSVK | GRAAGTFDS | Ctrl | 0.86 0.68 0.60 0.77 0.41 1.42 | 1 of 18 (1.29)
GFTLNSYGIS | VIYSDGSRTFYQDSVK | GRAAGTFDT | Ctrl | 1.66 2.01 2.26 2.67 1.45 1.84 | 0 of 18